Test results from article PMC5799093, “Proceedings of Réanimation 2018, the French Intensive Care Society International Congress” (Annals of Intensive Care, 2018).

System: septic shock patients
Assay: Randomized albumin vs saline volume expansion in septic shock; skin endothelial response to acetylcholine iontophoresis
Format: in vivo
Procedure: Patients and methods: We performed a prospective randomized monocentric study in an 18-bed medical intensive care unit. All patients with septic shock who required fluid administration were included between H6 and H24 after vasopressor starting. Patients were randomized to receive either 500 ml of saline solution 0.9% or 100 ml of albumin 20%. Norepinephrine dose was not modified 1 h before and during the procedure. Endothelium-dependant vasodilatation in the skin circulation was assessed by iontophoresis of acetylcholine before and after fluid administration. The improvement of skin blood flow in response to acetylcholine after fluid administration was compared between groups. For each patient, age, sex, SAPS II, site of infection, global hemodynamic parameters and clinical microcirculatory parameters were recorded. Results are expressed as mean ± SD. Qualitative data were compared using Chi-2 or Fisher’s exact test while quantitative data comparisons used Student t Test or Mann–Whitney as appropriate.

## Human serum albumin
100 ml albumin 20% (n = 10) or 500 ml saline 0.9% (n = 12)
  increase of systolic arterial pressure after volume expansion: 7%
Before vs after fluid infusion, 100 ml albumin 20% or 500 ml saline 0.9%
  improvement of endothelial response after acetylcholine challenge: 196%
